Reference: paper PMC5347793, “Transcription factor LSF-DNMT1 complex dissociation by FQI1 leads to aberrant DNA methylation and gene expression” (Oncotarget, 2016)

How the values were obtained:
[1] = target: T1, GST-full length LSF (LSF1-502) (human, UniProt Q12800 1-502); test: pull-down; as a4, in the presence of 2.5 uM FQI1; conditions: both partners purified
T1 construct: Not in the methods' list of GST-LSF fragments; probably made as those (pGEX-5X-1, E. coli); also called LSF full length
T1 sequence (looked up): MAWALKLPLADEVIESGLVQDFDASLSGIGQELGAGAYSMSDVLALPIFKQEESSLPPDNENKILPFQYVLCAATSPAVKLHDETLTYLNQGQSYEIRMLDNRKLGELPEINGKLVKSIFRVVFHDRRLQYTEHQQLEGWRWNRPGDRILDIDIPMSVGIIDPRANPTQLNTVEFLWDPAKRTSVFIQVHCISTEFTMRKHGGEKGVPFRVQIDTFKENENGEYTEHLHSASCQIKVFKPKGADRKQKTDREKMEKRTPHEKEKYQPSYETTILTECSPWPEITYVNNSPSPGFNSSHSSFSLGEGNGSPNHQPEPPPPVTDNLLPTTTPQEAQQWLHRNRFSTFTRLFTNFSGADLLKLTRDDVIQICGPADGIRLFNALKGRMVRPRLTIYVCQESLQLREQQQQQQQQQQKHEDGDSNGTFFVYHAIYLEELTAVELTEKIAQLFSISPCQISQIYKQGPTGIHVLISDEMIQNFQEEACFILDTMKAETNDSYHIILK

[2] = target: T2, GST-LSF (amino acids 380-502), carboxy-terminal domain (human, UniProt Q12800 380-502); test: pull-down; as a4, in the presence of 2.5 uM FQI1; conditions: both partners purified
T2 construct: the methods list a fragment 383-503 instead; Cloned into pGEX-5X-1; also called LSF Ubiquitin domain; source: E. coli, captured on Glutathione Sepharose beads
T2 sequence (looked up): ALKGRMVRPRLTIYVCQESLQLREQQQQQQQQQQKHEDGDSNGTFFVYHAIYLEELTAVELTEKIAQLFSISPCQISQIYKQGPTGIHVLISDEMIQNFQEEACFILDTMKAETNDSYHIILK

B1: purified full-length DNMT1 (recombinant, baculovirus expressed) (enzyme, human, UniProt P26358 1-1616, looked up)
chain: MPARTAPARVPTLAVPAISLPDDVRRRLKDLERDSLTEKECVKEKLNLLHEFLQTEIKNQLCDLETKLRKEELSEEGYLAKVKSLLNKDLSLENGAHAYNREVNGRLENGNQARSEARRVGMADANSPPKPLSKPRTPRRSKSDGEAKPEPSPSPRITRKSTRQTTITSHFAKGPAKRKPQEESERAKSDESIKEEDKDQDEKRRRVTSRERVARPLPAEEPERAKSGTRTEKEEERDEKEEKRLRSQTKEPTPKQKLKEEPDREARAGVQADEDEDGDEKDEKKHRSQPKDLAAKRRPEEKEPEKVNPQISDEKDEDEKEEKRRKTTPKEPTEKKMARAKTVMNSKTHPPKCIQCGQYLDDPDLKYGQHPPDAVDEPQMLTNEKLSIFDANESGFESYEALPQHKLTCFSVYCKHGHLCPIDTGLIEKNIELFFSGSAKPIYDDDPSLEGGVNGKNLGPINEWWITGFDGGEKALIGFSTSFAEYILMDPSPEYAPIFGLMQEKIYISKIVVEFLQSNSDSTYEDLINKIETTVPPSGLNLNRFTEDSLLRHAQFVVEQVESYDEAGDSDEQPIFLTPCMRDLIKLAGVTLGQRRAQARRQTIRHSTREKDRGPTKATTTKLVYQIFDTFFAEQIEKDDREDKENAFKRRRCGVCEVCQQPECGKCKACKDMVKFGGSGRSKQACQERRCPNMAMKEADDDEEVDDNIPEMPSPKKMHQGKKKKQNKNRISWVGEAVKTDGKKSYYKKVCIDAETLEVGDCVSVIPDDSSKPLYLARVTALWEDSSNGQMFHAHWFCAGTDTVLGATSDPLELFLVDECEDMQLSYIHSKVKVIYKAPSENWAMEGGMDPESLLEGDDGKTYFYQLWYDQDYARFESPPKTQPTEDNKFKFCVSCARLAEMRQKEIPRVLEQLEDLDSRVLYYSATKNGILYRVGDGVYLPPEAFTFNIKLSSPVKRPRKEPVDEDLYPEHYRKYSDYIKGSNLDAPEPYRIGRIKEIFCPKKSNGRPNETDIKIRVNKFYRPENTHKSTPASYHADINLLYWSDEEAVVDFKAVQGRCTVEYGEDLPECVQVYSMGGPNRFYFLEAYNAKSKSFEDPPNHARSPGNKGKGKGKGKGKPKSQACEPSEPEIEIKLPKLRTLDVFSGCGGLSEGFHQAGISDTLWAIEMWDPAAQAFRLNNPGSTVFTEDCNILLKLVMAGETTNSRGQRLPQKGDVEMLCGGPPCQGFSGMNRFNSRTYSKFKNSLVVSFLSYCDYYRPRFFLLENVRNFVSFKRSMVLKLTLRCLVRMGYQCTFGVLQAGQYGVAQTRRRAIILAAAPGEKLPLFPEPLHVFAPRACQLSVVVDDKKFVSNITRLSSGPFRTITVRDTMSDLPEVRNGASALEISYNGEPQSWFQRQLRGAQYQPILRDHICKDMSALVAARMRHIPLAPGSDWRDLPNIEVRLSDGTMARKLRYTHHDRKNGRSSSGALRGVCSCVEAGKACDPAARQFNTLIPWCLPHTGNRHNHWAGLYGRLEWDGFFSTTVTNPEPMGKQGRVLHPEQHRVVSVRECARSQGFPDTYRLFGNILDKHRQVGNAVPPPLAKAIGLEIKLCMLAKARESASAKIKEEEAAKD
notes: DNMT1, human, full length; source: recombinant baculovirus expressed, purified
fold reduction of binding with FQI1 against no FQI1 [1]: 2 fold
fold reduction of binding with FQI1 against no FQI1 [2]: 2 fold
